According to ChEMBL document CHEMBL1140614, “In silico and in vitro filters for the fast estimation of skin permeation and distribution of new chemical entities” (J Med Chem, 2007):

System: Zone of skin
Conditions: human

O=C(O)c1ccccc1O [SALYCILIC ACID]
log Kp: -5.45
